Literature values, collected in US6403816B1, “Betulinic acid derivatives having antiangiogenic activity, processes for producing such derivatives and their use for treating tumor associated angiogenesis” (Dabur Research Foundation, priority 1997, dated 2002).

Amino acid sequences for entries named in this document (tags omitted). Residues count along the entry.
UniProt P16109, 42-830, species assumed: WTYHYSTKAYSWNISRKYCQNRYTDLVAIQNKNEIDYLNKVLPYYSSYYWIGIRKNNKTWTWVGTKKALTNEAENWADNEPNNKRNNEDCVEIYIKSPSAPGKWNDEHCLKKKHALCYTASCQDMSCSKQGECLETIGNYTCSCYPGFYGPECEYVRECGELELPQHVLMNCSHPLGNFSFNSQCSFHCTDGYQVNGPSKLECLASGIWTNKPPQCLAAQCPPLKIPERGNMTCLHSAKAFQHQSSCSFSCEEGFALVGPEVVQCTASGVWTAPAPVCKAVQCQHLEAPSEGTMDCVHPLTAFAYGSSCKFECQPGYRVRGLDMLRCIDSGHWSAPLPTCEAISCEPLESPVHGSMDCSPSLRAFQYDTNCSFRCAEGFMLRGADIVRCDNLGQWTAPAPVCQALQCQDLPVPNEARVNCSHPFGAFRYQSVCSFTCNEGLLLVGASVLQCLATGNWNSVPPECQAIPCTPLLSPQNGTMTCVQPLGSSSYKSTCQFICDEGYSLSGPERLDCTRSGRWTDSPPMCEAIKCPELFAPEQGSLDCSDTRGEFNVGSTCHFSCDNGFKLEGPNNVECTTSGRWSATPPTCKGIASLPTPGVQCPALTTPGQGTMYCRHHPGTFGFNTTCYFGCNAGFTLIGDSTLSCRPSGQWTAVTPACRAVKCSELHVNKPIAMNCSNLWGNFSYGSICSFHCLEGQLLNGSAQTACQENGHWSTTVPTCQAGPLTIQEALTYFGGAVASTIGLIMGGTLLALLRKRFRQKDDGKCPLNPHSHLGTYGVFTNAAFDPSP

Tests used:
P-Selectin [1] = target: T1, P-Selectin (Homo sapiens, UniProt P16109); details: read-out: IC50, inhibition of P-Selectin binding to 2,3, sLex; cited from earlier work
P-Selectin [2] = target: T1, P-Selectin; details: read-out: IC50, inhibition of P-Selectin binding HL-60 cells; dose-dependent; cited from earlier work

In the case of `C=C(C)[C@@H]1CC[C@]2(C(=O)O)CC[C@]3(C)[C@H](CC[C@@H]4[C@@]5(C)CC[C@H](O)C(C)(C)[C@@H]5CC[C@]43C)[C@@H]12` [Betulinic acid], the IC50 (P-Selectin [1]) is given as 125 µM and the IC50 (P-Selectin [2]) is given as 750 µM.

Like-named read-outs stand apart in the source and are kept apart here.
